# From ChEMBL document CHEMBL2218924, “A broad activity screen in support of a chemogenomic map for kinase signalling research and drug discovery” (Biochem J, 2013)
# By UniProt entry, the sequences of proteins in these tests, tags left out. Where a name states a change or a piece, a line headed by the entry shows the natural chain unless it says otherwise.
# UniProt P07332: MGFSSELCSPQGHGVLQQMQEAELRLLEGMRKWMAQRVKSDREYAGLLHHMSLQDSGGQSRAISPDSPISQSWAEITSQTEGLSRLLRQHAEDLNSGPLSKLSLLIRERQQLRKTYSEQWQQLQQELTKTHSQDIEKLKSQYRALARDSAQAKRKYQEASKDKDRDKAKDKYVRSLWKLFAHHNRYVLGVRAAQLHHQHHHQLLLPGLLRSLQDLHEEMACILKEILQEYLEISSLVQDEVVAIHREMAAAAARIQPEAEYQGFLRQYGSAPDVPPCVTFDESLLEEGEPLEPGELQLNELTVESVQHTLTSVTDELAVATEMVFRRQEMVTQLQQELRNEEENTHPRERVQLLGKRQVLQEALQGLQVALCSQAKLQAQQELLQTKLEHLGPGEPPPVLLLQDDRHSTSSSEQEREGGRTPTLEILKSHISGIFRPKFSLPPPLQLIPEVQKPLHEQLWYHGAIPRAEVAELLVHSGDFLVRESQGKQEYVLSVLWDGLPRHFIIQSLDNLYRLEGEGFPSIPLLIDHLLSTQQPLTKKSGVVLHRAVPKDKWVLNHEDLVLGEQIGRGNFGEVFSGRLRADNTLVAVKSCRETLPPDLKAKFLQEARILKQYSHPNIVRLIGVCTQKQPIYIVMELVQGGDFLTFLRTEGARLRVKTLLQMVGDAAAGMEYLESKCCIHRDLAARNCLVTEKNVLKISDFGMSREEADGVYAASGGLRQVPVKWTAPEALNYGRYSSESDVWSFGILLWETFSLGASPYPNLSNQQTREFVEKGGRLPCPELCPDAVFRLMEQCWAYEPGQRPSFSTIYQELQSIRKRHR
# UniProt P24723, whole entry: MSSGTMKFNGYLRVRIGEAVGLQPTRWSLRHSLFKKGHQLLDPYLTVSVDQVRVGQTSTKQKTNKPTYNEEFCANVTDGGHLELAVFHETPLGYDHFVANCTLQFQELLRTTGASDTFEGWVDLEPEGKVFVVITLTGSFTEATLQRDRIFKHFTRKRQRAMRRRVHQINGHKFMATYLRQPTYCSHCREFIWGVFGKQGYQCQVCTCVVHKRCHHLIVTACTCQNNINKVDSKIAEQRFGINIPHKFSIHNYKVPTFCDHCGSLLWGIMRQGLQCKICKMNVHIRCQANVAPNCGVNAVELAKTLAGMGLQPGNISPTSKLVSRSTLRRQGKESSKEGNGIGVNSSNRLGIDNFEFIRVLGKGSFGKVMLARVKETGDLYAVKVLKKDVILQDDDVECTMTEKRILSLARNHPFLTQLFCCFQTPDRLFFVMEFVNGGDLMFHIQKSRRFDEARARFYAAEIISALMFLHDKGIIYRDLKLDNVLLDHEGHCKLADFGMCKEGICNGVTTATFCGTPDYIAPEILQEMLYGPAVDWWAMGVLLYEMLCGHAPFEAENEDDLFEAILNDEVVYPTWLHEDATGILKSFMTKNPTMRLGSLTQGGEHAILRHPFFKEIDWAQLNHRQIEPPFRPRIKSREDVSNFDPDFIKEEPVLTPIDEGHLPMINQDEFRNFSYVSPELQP
# UniProt Q13976: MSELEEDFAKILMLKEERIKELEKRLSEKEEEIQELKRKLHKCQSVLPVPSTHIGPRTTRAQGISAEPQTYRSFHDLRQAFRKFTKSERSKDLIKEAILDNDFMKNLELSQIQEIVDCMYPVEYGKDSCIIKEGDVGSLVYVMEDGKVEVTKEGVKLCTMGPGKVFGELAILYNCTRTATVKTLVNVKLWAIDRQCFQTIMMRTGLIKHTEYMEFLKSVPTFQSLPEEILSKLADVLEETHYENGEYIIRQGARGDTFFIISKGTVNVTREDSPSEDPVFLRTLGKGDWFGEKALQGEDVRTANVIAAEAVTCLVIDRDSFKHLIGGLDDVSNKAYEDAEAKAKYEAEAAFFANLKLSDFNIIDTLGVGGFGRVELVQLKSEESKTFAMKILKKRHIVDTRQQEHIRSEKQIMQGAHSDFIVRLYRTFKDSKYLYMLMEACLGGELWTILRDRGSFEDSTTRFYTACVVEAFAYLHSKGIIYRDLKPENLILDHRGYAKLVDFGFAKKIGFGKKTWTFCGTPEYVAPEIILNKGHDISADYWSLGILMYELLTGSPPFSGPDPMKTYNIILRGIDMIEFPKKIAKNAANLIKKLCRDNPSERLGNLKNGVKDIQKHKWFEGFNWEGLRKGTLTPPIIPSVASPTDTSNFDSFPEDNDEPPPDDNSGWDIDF
# UniProt Q9H4B4: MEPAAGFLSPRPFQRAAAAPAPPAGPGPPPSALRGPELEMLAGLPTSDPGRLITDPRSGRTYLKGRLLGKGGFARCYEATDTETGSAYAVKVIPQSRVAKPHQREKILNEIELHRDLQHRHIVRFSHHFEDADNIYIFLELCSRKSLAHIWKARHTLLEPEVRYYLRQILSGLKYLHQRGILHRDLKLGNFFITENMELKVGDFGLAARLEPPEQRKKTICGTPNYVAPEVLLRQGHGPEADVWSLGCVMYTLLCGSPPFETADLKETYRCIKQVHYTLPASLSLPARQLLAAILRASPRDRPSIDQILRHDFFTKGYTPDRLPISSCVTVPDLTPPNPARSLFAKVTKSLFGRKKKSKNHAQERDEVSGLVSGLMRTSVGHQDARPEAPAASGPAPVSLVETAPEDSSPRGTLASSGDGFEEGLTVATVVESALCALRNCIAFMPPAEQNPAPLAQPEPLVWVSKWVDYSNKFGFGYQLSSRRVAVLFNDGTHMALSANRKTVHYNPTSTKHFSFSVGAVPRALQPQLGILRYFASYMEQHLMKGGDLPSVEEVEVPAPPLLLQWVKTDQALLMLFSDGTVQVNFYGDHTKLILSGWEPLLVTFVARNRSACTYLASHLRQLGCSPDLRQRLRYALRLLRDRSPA
# UniProt O75116: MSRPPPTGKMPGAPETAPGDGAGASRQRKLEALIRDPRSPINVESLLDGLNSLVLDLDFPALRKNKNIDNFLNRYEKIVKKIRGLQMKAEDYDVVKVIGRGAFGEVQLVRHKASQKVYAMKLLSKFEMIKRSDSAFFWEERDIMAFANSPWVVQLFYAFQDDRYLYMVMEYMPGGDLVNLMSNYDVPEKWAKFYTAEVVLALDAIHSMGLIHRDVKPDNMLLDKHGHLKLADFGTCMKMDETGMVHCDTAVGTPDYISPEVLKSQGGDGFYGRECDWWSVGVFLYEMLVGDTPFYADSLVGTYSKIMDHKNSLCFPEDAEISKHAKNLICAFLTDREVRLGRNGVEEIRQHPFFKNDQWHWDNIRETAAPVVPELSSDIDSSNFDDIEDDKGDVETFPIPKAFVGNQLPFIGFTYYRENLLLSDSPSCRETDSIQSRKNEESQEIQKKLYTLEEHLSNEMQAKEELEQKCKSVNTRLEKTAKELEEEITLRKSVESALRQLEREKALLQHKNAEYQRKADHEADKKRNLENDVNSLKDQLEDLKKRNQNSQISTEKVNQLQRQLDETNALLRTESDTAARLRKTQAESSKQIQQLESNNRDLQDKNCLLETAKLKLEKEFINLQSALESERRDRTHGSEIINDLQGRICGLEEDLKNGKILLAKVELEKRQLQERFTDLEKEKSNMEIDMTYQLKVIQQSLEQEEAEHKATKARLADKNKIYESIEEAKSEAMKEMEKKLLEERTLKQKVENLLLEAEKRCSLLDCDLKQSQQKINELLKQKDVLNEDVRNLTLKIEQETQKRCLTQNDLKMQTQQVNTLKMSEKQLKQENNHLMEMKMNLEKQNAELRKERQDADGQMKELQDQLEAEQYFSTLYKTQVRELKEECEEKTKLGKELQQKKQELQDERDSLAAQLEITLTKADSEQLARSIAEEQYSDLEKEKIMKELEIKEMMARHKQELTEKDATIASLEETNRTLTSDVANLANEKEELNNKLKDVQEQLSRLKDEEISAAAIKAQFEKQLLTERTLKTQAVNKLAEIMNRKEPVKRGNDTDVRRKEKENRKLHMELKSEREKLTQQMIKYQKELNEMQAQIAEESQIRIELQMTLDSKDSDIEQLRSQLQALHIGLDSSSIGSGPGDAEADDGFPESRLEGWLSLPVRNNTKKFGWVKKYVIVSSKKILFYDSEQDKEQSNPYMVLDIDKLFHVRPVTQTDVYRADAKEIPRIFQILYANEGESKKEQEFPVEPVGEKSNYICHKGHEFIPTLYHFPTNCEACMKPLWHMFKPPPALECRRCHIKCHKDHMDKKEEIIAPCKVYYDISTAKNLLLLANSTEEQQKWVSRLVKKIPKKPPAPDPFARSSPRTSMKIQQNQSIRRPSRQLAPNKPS
# UniProt Q9HBY8: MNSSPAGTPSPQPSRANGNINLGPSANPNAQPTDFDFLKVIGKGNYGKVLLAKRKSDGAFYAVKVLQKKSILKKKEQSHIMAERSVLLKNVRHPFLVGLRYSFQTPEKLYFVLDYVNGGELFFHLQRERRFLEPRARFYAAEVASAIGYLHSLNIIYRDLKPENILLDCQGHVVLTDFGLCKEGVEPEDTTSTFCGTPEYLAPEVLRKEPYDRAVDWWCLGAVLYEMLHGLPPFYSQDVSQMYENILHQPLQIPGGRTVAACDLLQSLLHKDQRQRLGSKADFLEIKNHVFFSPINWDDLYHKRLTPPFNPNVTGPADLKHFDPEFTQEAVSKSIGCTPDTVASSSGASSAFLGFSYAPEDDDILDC
# UniProt Q96SB4, whole entry: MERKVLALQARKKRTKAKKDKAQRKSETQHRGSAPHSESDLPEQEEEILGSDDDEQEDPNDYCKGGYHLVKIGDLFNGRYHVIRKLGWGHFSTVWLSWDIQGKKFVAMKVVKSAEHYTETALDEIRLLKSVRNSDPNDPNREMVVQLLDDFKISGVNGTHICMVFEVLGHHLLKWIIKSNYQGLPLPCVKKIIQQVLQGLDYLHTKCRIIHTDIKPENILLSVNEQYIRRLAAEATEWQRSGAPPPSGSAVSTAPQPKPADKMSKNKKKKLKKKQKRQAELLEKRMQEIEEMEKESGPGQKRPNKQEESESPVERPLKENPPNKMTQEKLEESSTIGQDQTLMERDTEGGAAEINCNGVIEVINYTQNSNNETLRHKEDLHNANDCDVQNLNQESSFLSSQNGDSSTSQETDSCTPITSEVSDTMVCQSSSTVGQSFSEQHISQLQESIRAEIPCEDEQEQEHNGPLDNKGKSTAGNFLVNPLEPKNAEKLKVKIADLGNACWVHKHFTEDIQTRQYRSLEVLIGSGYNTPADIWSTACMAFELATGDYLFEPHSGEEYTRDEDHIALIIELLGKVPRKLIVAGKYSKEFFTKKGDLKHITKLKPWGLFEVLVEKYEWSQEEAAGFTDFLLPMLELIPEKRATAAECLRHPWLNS
# UniProt P78362, whole entry, looked up: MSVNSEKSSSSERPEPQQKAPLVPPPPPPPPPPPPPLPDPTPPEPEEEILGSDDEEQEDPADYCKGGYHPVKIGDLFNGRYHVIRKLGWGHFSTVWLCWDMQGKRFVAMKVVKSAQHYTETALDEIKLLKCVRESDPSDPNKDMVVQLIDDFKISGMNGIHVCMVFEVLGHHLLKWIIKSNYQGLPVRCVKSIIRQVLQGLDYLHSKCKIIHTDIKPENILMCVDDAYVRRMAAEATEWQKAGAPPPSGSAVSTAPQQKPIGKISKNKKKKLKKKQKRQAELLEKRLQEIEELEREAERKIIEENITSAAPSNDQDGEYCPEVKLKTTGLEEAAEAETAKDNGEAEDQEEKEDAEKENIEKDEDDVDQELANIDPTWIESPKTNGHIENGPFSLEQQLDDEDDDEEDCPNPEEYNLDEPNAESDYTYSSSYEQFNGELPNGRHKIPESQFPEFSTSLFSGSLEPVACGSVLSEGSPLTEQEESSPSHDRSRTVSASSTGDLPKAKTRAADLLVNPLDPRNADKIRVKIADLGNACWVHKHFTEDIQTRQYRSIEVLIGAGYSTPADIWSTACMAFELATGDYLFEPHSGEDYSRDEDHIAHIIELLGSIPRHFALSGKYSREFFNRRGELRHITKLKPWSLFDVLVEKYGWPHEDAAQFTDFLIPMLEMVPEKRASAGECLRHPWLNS
# UniProt Q9BYT3: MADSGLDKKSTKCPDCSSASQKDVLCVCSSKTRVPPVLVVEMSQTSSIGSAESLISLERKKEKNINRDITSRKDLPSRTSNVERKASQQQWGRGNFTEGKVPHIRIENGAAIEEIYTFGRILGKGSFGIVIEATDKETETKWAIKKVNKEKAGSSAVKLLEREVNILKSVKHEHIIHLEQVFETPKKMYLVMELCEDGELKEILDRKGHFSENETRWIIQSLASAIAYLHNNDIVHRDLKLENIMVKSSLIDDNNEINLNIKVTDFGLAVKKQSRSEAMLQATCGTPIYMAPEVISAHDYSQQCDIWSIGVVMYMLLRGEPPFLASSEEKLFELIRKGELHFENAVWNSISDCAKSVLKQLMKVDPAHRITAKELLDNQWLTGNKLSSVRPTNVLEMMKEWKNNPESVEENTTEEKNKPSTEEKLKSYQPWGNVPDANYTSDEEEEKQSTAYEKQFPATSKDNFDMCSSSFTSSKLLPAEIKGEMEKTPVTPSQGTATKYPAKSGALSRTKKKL
# For part of these data: The strong results were mostly taken out for another list; the other results follow. The rule behind the calls is not given here. Only a part is listed here, and it is no random draw.
# Columns and labels:
# [1] = target: Tyrosine-protein kinase Fes/Fps (Homo sapiens) (UniProt P07332); details: at 1 µM
# [2] = target: G protein-coupled receptor kinase 6 (Homo sapiens) (UniProt P43250); details: at 1 µM
# [3] = target: Rhodopsin kinase GRK7 (Homo sapiens) (UniProt Q8WTQ7); details: at 1 µM
# [4] = target: Protein kinase C zeta type (Homo sapiens) (UniProt Q05513); details: at 10 µM
# [5] = target: Protein kinase C eta type (Homo sapiens) (UniProt P24723); details: at 1 µM
# [6] = target: T1, Protein kinase C iota type (Homo sapiens) (UniProt P41743); details: at 1 µM
# T1 sequence (whole entry): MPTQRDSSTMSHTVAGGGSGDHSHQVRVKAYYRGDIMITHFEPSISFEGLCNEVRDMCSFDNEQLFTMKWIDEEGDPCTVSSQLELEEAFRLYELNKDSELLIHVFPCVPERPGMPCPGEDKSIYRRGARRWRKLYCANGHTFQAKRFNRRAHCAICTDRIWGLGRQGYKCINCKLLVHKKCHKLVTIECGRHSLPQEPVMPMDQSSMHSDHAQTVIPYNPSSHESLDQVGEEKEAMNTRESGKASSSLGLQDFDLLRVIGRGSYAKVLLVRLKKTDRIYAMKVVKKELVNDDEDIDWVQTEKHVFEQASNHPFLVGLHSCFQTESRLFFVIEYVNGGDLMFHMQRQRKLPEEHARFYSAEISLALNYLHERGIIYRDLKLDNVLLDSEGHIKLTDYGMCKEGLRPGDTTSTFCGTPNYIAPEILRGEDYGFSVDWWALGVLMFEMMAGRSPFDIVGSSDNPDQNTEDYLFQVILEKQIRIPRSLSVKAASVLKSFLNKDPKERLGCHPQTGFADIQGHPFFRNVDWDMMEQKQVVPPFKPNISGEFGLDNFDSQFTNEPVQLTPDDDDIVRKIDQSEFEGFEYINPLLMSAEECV
# [7] = target: T2, Serine/threonine-protein kinase D1 (Homo sapiens) (UniProt Q15139); details: at 1 µM
# T2 sequence (whole entry): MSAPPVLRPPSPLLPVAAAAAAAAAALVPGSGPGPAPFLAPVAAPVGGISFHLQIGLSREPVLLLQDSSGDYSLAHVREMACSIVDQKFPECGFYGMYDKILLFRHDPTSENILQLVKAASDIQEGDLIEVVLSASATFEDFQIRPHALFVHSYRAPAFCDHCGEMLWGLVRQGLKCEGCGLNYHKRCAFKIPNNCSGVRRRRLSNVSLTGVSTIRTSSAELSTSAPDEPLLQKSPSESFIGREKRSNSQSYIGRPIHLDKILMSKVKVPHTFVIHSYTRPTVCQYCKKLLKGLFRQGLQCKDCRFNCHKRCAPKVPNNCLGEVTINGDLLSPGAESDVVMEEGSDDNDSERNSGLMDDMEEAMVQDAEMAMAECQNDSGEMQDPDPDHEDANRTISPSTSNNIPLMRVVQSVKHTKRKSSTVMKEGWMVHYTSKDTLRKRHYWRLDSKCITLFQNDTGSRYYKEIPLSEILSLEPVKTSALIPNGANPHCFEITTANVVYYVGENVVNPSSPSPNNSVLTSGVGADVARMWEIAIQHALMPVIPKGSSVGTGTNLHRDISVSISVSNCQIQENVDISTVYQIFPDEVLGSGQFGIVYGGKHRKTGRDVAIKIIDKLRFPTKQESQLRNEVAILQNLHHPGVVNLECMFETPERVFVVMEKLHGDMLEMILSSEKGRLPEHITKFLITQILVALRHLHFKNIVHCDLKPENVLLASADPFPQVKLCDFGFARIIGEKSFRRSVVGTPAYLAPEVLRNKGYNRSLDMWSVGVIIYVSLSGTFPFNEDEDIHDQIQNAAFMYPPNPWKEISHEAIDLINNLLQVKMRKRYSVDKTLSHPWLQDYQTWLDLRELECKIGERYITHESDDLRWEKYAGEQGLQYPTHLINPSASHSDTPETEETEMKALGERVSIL
# [8] = target: T3, Serine/threonine-protein kinase D2 (Homo sapiens) (UniProt Q9BZL6); details: at 1 µM
# T3 sequence (whole entry): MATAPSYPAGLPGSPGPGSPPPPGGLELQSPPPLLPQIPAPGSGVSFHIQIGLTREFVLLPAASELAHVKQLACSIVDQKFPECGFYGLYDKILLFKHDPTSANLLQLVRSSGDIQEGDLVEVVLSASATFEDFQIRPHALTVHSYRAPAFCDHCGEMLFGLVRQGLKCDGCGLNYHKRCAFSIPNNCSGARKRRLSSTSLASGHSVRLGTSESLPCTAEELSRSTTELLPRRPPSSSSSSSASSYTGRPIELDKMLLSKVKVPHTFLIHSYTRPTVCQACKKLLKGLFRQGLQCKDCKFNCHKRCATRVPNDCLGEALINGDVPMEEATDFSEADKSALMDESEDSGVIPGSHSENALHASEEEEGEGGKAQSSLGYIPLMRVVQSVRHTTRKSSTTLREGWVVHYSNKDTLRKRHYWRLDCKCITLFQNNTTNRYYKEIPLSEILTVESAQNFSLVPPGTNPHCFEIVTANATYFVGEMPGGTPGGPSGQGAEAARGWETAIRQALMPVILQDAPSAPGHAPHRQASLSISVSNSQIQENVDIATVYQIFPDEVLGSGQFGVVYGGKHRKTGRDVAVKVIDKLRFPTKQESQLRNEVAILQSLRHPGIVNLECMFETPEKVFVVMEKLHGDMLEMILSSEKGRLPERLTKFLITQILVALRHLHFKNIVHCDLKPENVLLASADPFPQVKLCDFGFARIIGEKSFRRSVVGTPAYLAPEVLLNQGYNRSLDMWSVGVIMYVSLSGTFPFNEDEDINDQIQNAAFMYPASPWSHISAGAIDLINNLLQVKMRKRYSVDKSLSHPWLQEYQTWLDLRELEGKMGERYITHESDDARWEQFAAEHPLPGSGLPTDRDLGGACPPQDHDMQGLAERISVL
# [9] = target: T3, Serine/threonine-protein kinase D2 (Homo sapiens); details: at 10 µM
# [10] = target: cGMP-dependent protein kinase 1 (Homo sapiens) (UniProt Q13976); details: at 10 µM
# [11] = target: T4, MAP kinase-activated protein kinase 5 (Homo sapiens) (UniProt Q8IW41); details: at 1 µM
# T4 sequence (whole entry): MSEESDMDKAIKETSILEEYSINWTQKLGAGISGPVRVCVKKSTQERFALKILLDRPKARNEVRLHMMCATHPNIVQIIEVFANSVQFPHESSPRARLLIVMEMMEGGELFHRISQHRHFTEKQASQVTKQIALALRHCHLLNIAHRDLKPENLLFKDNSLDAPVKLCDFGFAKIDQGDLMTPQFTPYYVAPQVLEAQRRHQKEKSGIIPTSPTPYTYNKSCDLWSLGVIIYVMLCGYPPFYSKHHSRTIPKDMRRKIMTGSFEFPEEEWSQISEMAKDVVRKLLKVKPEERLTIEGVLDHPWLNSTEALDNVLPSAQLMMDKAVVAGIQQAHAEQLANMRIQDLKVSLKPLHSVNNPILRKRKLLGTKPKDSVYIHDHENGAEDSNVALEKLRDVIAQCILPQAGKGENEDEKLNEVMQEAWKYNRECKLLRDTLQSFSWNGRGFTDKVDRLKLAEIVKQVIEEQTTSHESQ
# [12] = target: Tyrosine-protein kinase FRK (Homo sapiens) (UniProt P42685); details: at 1 µM
# [13] = target: Tyrosine-protein kinase FRK (Homo sapiens) (UniProt P42685); details: at 10 µM
# [14] = target: T5, Phosphorylase b kinase gamma catalytic chain, liver/testis isoform (Homo sapiens) (UniProt P15735); details: at 10 µM
# T5 sequence (whole entry): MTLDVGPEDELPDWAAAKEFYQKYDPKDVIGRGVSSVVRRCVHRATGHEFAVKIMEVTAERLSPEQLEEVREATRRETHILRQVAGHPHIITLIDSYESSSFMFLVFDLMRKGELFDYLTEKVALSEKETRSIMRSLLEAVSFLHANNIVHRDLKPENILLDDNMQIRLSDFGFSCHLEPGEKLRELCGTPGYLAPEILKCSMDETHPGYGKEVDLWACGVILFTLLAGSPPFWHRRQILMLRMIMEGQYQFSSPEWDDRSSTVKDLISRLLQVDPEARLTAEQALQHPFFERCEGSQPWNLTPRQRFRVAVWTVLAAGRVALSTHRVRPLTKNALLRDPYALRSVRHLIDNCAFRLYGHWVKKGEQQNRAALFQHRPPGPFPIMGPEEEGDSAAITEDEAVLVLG
# [15] = target: Serine/threonine-protein kinase PLK3 (Homo sapiens) (UniProt Q9H4B4); details: at 10 µM
# [16] = target: cAMP-dependent protein kinase catalytic subunit PRKX (Homo sapiens) (UniProt P51817); details: at 1 µM
# [17] = target: cAMP-dependent protein kinase catalytic subunit PRKX (Homo sapiens) (UniProt P51817); details: at 10 µM
# [18] = target: Rho-associated protein kinase 1 (Homo sapiens) (UniProt Q13464); details: at 10 µM
# [19] = target: Rho-associated protein kinase 2 (Homo sapiens) (UniProt O75116); details: at 1 µM
# [20] = target: Proto-oncogene tyrosine-protein kinase ROS (Homo sapiens) (UniProt P08922); details: at 1 µM
# [21] = target: Proto-oncogene tyrosine-protein kinase ROS (Homo sapiens) (UniProt P08922); details: at 10 µM
# [22] = target: T6, Tyrosine-protein kinase receptor TYRO3 (Homo sapiens) (UniProt Q06418); details: at 1 µM
# T6 sequence (whole entry): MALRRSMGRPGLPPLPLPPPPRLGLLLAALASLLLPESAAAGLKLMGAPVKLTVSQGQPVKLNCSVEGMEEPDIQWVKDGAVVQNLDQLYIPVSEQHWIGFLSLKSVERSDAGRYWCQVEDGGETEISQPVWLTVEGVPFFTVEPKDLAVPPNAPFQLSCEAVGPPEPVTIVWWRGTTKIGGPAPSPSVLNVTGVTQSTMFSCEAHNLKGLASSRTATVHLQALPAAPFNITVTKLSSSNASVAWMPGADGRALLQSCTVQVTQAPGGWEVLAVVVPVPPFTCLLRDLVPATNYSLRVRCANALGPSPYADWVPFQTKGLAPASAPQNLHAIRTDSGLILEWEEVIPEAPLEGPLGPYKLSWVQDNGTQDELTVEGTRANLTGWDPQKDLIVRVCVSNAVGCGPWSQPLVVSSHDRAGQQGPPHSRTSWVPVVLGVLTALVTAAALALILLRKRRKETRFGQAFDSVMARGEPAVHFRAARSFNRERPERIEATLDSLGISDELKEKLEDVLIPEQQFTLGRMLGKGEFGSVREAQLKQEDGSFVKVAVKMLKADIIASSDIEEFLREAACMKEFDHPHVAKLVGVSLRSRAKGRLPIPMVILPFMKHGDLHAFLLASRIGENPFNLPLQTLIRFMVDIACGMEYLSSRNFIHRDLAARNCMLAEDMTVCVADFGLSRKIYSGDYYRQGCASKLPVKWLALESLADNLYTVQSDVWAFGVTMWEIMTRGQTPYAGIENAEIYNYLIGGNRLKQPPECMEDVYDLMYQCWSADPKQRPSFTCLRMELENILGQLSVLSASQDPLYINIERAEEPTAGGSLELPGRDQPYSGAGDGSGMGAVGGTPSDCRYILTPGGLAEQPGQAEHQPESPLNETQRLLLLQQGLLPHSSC
# [23] = target: Mitogen-activated protein kinase 11 (Homo sapiens) (UniProt Q15759); details: at 10 µM
# [24] = target: T7, Serine/threonine-protein kinase Sgk1 (Homo sapiens) (UniProt O00141); details: at 1 µM
# T7 sequence (whole entry): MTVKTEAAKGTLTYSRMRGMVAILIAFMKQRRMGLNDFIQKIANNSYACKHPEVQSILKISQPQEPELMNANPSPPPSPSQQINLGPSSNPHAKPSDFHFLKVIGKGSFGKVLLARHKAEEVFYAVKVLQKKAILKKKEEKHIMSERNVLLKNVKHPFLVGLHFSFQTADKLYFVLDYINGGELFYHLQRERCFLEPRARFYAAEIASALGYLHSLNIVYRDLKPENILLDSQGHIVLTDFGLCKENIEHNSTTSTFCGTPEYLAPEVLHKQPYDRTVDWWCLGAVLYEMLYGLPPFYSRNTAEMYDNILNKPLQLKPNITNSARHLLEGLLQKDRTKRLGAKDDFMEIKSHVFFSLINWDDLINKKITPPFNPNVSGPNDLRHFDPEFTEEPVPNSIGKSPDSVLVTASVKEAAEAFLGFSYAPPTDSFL
# [25] = target: T7, Serine/threonine-protein kinase Sgk1 (Homo sapiens); details: at 10 µM
# [26] = target: Serine/threonine-protein kinase Sgk2 (Homo sapiens) (UniProt Q9HBY8); details: at 1 µM
# [27] = target: Serine/threonine-protein kinase Sgk3 (Homo sapiens) (UniProt Q96BR1); details: at 10 µM
# [28] = target: SRSF protein kinase 1 (Homo sapiens) (UniProt Q96SB4); details: at 1 µM
# [29] = target: SRSF protein kinase 2 (Homo sapiens) (UniProt P78362); details: at 1 µM
# [30] = target: Serine/threonine-protein kinase 33 (Homo sapiens) (UniProt Q9BYT3); details: at 1 µM
structure (smiles),measurement,setting,value
O=C1NC(=O)C(c2cn(CCCO)c3ncccc23)=C1c1cnccn1,residual activity,[1],102%
same,residual activity,[2],105%
same,residual activity,[3],106%
same,residual activity,[4],102%
same,residual activity,[5],111%
same,residual activity,[6],inactive: 104%
same,residual activity,[7],102%
same,residual activity,[8],98%
same,residual activity,[9],104%
same,residual activity,[10],122%
same,residual activity,[11],105%
same,residual activity,[12],97%
same,residual activity,[13],105%
same,residual activity,[14],112%
same,residual activity,[15],99%
same,residual activity,[16],107%
same,residual activity,[17],101%
same,residual activity,[18],108%
same,residual activity,[19],104%
same,residual activity,[20],101%
same,residual activity,[21],98%
same,residual activity,[22],99%
same,residual activity,[23],104%
same,residual activity,[24],113%
same,residual activity,[25],106%
same,residual activity,[26],113%
same,residual activity,[27],103%
same,residual activity,[28],107%
same,residual activity,[29],101%
same,residual activity,[30],101%
